The values below are quoted from earlier work in paper PMC5970165, “Development and validation of a LC-MS/MS assay for pharmacokinetic studies of complement C5a receptor antagonists PMX53 and PMX205 in mice” (Scientific Reports, 2018).

For the series the following is noted: rat, in vivo; cited from earlier work.

`CC(=O)N[C@@H](Cc1ccccc1)C(=O)N[C@H]1CCCNC(=O)[C@H](CCCNC(=N)N)NC(=O)[C@H](Cc2c[nH]c3ccccc23)NC(=O)[C@@H](CC2CCCCC2)NC(=O)[C@@H]2CCCN2C1=O` [PMX53, Ac-Phe-[Orn-Pro-dCha-Trp-Arg]]: the oral bioavailability is recorded as ~ 5%.
